Target: Cyclooxygenase (Homo sapiens, UniProt P35354+P23219)
Test: Inhibitory concentration required for inhibition of Prostaglandin G/H synthase
Assay type: functional

Sequences of proteins named here, by UniProt entry; tags and fusion partners are left off. A change or cut given only in a name is not applied to a line headed by its entry.
UniProt P35354: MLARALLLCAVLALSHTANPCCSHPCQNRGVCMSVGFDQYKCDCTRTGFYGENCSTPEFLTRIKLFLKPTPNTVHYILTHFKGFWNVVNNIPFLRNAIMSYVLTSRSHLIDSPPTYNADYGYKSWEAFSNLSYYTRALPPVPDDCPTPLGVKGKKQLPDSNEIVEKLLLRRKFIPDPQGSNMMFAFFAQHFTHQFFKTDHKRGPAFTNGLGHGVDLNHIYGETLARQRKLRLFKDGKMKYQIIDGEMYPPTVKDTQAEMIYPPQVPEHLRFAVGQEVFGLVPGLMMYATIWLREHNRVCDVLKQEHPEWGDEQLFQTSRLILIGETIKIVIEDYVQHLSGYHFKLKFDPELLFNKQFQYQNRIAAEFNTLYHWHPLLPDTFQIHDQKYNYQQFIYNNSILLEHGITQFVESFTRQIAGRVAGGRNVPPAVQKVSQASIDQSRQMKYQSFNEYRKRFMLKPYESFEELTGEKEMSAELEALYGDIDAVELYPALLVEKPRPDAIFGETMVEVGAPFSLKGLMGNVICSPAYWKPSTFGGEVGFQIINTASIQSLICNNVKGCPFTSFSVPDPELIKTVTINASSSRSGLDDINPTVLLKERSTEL
UniProt P23219: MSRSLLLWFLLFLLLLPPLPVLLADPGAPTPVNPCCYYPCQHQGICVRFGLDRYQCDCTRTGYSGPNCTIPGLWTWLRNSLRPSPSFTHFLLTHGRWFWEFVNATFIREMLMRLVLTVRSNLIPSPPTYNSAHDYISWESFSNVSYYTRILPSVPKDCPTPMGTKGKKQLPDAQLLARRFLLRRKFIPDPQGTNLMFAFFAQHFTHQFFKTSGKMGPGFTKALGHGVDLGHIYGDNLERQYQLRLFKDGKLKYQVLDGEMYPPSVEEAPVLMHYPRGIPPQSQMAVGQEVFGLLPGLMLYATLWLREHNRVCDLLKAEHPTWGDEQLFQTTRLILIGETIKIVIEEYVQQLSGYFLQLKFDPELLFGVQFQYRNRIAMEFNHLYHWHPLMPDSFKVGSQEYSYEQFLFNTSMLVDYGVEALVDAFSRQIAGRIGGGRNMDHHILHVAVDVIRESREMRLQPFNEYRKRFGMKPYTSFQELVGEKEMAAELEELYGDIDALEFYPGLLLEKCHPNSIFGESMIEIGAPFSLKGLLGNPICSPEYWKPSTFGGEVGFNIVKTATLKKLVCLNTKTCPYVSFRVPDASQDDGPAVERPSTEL

How did the IC50 turn out when `CC(C)(C)c1cc(/C=C/c2cccnc2)cc(C(C)(C)C)c1O` was run?
The IC50 was 670 nM.

— ChEMBL document CHEMBL1124310, “Antiinflammatory 2,6-di-tert-butyl-4-(2-arylethenyl)phenols” (J Med Chem, 1989)
